Reference: ChEMBL document CHEMBL1131999, “Design, synthesis and testing of amino-bicycloaryl based orally bioavailable thrombin inhibitors” (Bioorg Med Chem Lett, 1999)
pIC50: −log10 of the molar value.

Target: Prothrombin (Homo sapiens, UniProt P00734)
Test: In vitro thrombin inhibition

pIC50: 7.10
SMILES: COc1cc(C)c(S(=O)(=O)N[C@@H](CC(=O)OC(C)(C)C)C(=O)NC(Cc2ccc3c(N)nccc3c2)C(=O)N2CCCCC2)c(C)c1C (stereo partly specified)
